From patent EP1881070A2 come the findings set out here.

The test addresses human zalpha11 receptor (human) (UniProt Q9HBE5). Briefly: cell-based or functional assay.

In the case of “mouse zalpha11 Ligand (from UniProt Q9ES17 18-146)”, the STAT luciferase reporter response of BaF3/KZ134/Zalpha11 cells, BHK570 conditioned media (fold over media-only control) is 40 and the proliferation of BaF3/Zalpha11 cells (Alamar Blue), BHK conditioned media (fold over background) is 5.
